Where “and” joins values, the source holds several entries; their conditions need not be identical. Equal entries are not always repeated. The entries are a selection whose mix differs from that of the whole data set. Records with an inconclusive call do not appear. Calls of active or inactive are those of the source. Calls come from the whole dose curve; as a rule, active = well fitted inhibition curve with a large enough effect; inconclusive = small, poorly fitted or top-dose-only effect; inactive = no such curve, though single readings can be large or run the other way.
target: Rap guanine nucleotide exchange factor 4 (Homo sapiens) (UniProt Q8WZA2); test: Validation qHTS for antagonist of cAMP-regulated guanine nucleotide exchange factor 4 (EPAC2); details: EPAC2 Rap1B BODIPY-GDP exchange, fluorescence; at 112 µM (top of the series) unless noted; note: nearly all actives have a fitted effect of over 40% in size
Source text: Principle Investigator: Xiaodong Cheng Ph.D. The University of Texas Medical Branch, […], TX MLPCN Grant: NS066510 In multi-cellular eukaryotic organisms, the effects of cAMP are transduced by two ubiquitously-expressed intracellular cAMP receptors, the classic protein kinase A/cAMP-dependent protein kinase (PKA/cAPK) and the more recently discovered exchange protein directly activated by cAMP/cAMP-regulated guanine nucleotide exchange factor (EPAC/cAMP-GEF). Both PKA and EPAC are ubiquitously expressed in all tissues, and an increase in intracellular cAMP levels will lead to the activation of both PKA and EPAC. Therefore, careful dissections of the individual role and relative contribution of EPAC and PKA within the overall cAMP signaling in various model systems are critical for further elucidating the mechanism of cAMP signaling. To date no EPAC-specific antagonists and agonist, as well as isoform-specific agonists have been reported, and developing EPAC-specific pharmacological probes to determine the physiological functions that EPAC play in the overall cAMP-mediated signaling remains a major challenge within the research field. Furthermore, identified regulators of EPAC may lead to new mechanism-based therapeutic strategies specifically targeting the EPAC / cAMP-signaling components as EPAC has been implicated to play important roles in major human pathological conditions such as diabetes, heart disease, and cancer. This qHTS will be used to screen the Molecular Libraries Small Molecule Repository (MLSMR) as a concentration-titration series using the NCGC unique quantitative screening (qHTS) platform to find activators for EPAC1. In addition, this assay will also be used as a counterscreen for the EPAC2 qHTS. This fluorescent based assay is developed and validated for EPAC1 that measures exchange using EPAC effector Rap1 complex with BODIPY-GDP, a GDP analog with a tethered fluorophores. Activators are identified by monitoring the change in fluorescence signal as the exchanged free BODIPY-GDP has a reduced fluorescence compared to Rap1-bound BODIPY-GDP. Increase in signal (activation) is the desired outcome for the EPAC1 agonist while no activity in this assay is desired for the EPAC2 agonist counterscreen. Reference: [1] de Rooij, J., Zwartkruis, F. J., Verheijen, M. H., Cool, R. H., Nijman, S. M., Wittinghofer, A., and Bos, J.L. (1998) Nature 396, 474-477.
Briefly, three uL of reagents (100 nM EPAC2, 250 nM RAP1B-BODIPY-GDP, 50 uM GDP) were dispensed into a 1536-well Greiner black solid-bottom medium binding assay plate. Controls and test compounds (23 nL) were transferred to the plate via a Kalypsys pin tool equipped with a 1536-pin array. The plates were centrifuged at 1,000 rpm for 15 seconds followed by 5 minute incubation at room temperature. The assay plates were read at 5 minute intervals for 30 minutes in the ViewLux plate reader using 480nm excitation and 540nm emission filters. The results were normalized to the agonist positive control of 6.5 mM cAMP.

Protein sequences, listed by entry. Tags and fused reporters are not part of them. Lines headed by an entry give the natural chain unless they say otherwise; changes in a name come on top.
UniProt Q8WZA2: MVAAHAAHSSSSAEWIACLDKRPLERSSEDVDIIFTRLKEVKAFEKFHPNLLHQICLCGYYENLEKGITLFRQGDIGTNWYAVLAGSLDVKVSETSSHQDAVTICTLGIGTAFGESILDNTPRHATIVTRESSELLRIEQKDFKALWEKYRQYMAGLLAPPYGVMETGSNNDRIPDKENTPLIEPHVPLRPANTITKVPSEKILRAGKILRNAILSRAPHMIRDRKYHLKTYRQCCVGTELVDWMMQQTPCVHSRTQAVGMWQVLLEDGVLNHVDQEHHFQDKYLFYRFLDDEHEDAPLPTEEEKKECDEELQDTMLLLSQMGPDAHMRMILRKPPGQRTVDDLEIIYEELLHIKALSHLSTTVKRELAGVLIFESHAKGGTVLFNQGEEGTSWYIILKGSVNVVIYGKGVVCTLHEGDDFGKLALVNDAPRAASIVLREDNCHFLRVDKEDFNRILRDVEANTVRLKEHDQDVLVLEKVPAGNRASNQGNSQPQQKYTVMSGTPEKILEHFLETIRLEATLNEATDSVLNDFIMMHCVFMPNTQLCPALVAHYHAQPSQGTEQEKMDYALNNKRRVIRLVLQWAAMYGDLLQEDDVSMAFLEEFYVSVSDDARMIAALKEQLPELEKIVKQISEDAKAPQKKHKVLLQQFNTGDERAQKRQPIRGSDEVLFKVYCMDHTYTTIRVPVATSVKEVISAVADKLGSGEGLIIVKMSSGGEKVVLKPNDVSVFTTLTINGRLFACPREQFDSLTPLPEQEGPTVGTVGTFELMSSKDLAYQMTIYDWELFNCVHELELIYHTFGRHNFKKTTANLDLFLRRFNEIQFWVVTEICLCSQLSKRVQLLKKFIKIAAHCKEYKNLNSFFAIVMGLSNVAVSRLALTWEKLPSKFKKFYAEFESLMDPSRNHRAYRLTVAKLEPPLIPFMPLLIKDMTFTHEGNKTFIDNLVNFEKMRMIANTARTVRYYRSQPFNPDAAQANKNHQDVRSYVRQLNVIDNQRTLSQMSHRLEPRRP

Structure (SMILES)	activity, negative = inhibition
CN(CCCl)Cc1cc(Cl)c(NC2=NCCN2)c(Cl)c1	inactive: 1.69% and inactive: -12.6%
CN(C(=O)Cc1ccc(Cl)c(Cl)c1)[C@@H]1CCCC[C@H]1N1CCCC1	inactive: -10.9%
NC(=O)Nc1ccc([As](=O)(O)O)cc1	inactive: 6%
CN(C(=O)Cc1ccccc1)[C@@H]1CC[C@]2(CCCO2)C[C@H]1N1CCCC1	inactive: -23.2%
CN(C(=O)Cc1ccc(Cl)c(Cl)c1)[C@H]1CC[C@@]2(CCCO2)C[C@@H]1N1CCCC1	inactive: 18.4%
CN(C(=O)Cc1ccc(Cl)c(Cl)c1)[C@@H]1CC[C@]2(CCCO2)C[C@H]1N1CCCC1	inactive: -11.4%
O=[N+]([O-])c1cc([N+](=O)[O-])c2nc[nH]c2c1	inactive: 7.57%
CN(C(=O)Cc1ccc(Cl)c(Cl)c1)[C@@H]1CCCC[C@@H]1N1CCCC1	inactive: -19.5%
O=C(OC1CN2CCC1CC2)c1ccccc1 (stereo unspecified)	inactive: 28.9%
CN(C(=O)Cc1ccccc1)[C@H]1CC[C@@]2(CCCO2)C[C@@H]1N1CCCC1	inactive: 10.6%
COc1cccc([N+](=O)[O-])c1[N+](=O)[O-]	inactive: -10.6%
CC(=O)C1=CCCC2CCC1N2 (stereo unspecified)	inactive: -7.99%
COc1cc([N+](=O)[O-])c([N+](=O)[O-])cc1OC	inactive: -23.1%
Cc1cc(C=O)ccc1N(CCCl)CCCl	inactive: -0.355%
Nc1c(O)cc([N+](=O)[O-])cc1[N+](=O)[O-]	inactive: -19.6%
CCNC(C)Cc1ccc2c(c1)OCO2 (stereo unspecified)	inactive: -2.65% [at 239 µM]
